Reference: patent US20240174727A1, “LONG-ACTING NATRIURETIC PEPTIDES AND USES THEREOF” (Eli Lilly and Company, priority 2022, published 2024)

Key:
rat NPRA = target: T1, rat NPRA (Rattus norvegicus, UniProt P18910); assay: Rat NPRA cGMP activity assay (HTRF) in HEK293 cells overexpressing NPRA; format: cell-based
T1 construct: Full-Length cDNA Cloning and Generation of Cell Lines Overexpressing Natriuretic Peptide Receptors (NPRs); expressed in transfected cells; host or cells: Jump-in T-Rex HEK293 cells, pJTI R4 CMV-TO MCS pA vector, tetracycline induction
T1 sequence (P18910 29-1057): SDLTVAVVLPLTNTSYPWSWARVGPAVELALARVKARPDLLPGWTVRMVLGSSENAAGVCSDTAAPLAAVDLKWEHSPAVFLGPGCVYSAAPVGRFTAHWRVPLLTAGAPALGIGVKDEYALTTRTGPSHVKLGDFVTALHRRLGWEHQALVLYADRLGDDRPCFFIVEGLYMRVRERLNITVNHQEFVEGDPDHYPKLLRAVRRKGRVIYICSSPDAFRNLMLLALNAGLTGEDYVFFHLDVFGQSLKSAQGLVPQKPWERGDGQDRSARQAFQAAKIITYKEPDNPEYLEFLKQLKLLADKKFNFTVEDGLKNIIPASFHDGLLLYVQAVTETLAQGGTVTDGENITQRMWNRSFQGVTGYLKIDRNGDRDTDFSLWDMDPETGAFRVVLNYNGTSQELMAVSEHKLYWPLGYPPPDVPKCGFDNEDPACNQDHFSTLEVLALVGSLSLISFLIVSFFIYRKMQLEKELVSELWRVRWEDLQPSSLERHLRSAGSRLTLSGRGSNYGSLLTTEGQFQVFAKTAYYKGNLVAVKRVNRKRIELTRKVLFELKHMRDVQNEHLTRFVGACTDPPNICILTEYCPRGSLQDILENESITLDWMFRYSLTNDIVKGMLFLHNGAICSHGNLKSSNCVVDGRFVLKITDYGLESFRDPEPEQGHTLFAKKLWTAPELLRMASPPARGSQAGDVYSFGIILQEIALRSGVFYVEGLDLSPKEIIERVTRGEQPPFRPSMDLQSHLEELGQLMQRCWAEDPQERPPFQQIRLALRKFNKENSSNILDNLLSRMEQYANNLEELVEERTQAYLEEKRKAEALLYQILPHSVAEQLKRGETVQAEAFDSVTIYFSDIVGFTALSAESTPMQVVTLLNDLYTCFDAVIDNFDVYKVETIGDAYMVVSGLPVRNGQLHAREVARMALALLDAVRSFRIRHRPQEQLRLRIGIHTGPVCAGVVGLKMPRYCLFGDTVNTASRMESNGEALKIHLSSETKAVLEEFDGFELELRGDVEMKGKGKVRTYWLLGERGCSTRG
Experimental: All sequences were verified by full-length sequencing performed by ACGT DNA Sequencing Services (Wheeling, IL). The target cDNA was cloned into pJTI R4 CMV-TO MCS pA vector and then co-transfected with pJT1R4 Int vector into Jump-in™ T-Rex™ HEK293 cells for mammalian inducible expression using Jump-in™ T-Rex™ HEK293 kit and Lipofectamine LTX and Plus Reagent following manufacturer's protocols, as briefly described below.
Jump-in™ T-Rex™ HEK293 cells were plated in a BioCOAT® poly-D-lysine coated 6-well plate (Becton Dickinson, cat no. 354413) at 1 million cells/well in 2 mL culture medium and incubated for 18 h at 37° C. and 5% CO2 to 50-70% confluence. A cDNA mix was made in a 50 mL tube by adding 1.5 μg target cDNA, 1.5 μg pJT1R4 Int vector, 3 μL Plus Reagent, and 300 μL Opti-MEM I sequentially into the tube. A reagent mix was made in a separate 50 mL tube by adding 7.5 μL Lipofectamine LTX into 300 μL Opti-MEM I. The mixtures were incubated for 5 min at room temperature. The cDNA mix was then transferred into the reagent mix, mixed well, and incubated for additional 30 min at room temperature. A 500 μL of cDNA/Lipofectamine complex was then transferred to the wells of the cell plate in which the culture medium was changed to 2 mL of transfection medium containing DMEM with 4.5 g/L D-glucose supplemented with 10% FBS-HI and 20 mM HEPES. Transfected cells were cultured for 48 h in an incubator at 37° C. and 5% CO2. A subclone or pool from each overexpressing cell line was maintained in culture medium with the addition of 2 mg/mL G418 sulfate for the clone selection based on its built-in resistance to G418 sulfate for at least 3 weeks with medium changed every 2-3 days.
NPRs were overexpressed in T-Rex™ HEK293 cells following the induction with 300 ng/mL tetracycline in culture medium for 48 h. Induced cell lines in an exponential growth phase were treated with 0.05% trypsin-EDTA for a few seconds at room temperature, harvested in cell medium containing FBS to neutralize the trypsin, counted, and cryopreserved at the density of 2 million cells/mL in cell preservation solution containing FBS-HI with 5% DMSO. Cryopreserved cells were stored at −80° C. for a few days prior to transferring to a liquid nitrogen tank. Induced cell lines were then used for suspension assays to measure the activity of polypeptides to stimulate cGMP production in cGMP assays or for the preparation of cell membranes to measure the binding activity of polypeptides in competitive radioligand binding assays, as described below.
Test polypeptides were added starting at 10 μM concentration and at 10-fold decreasing concentrations to obtain 8-point concentration-response curves (i.e., 10 μM to 1 pM). The quantity of cGMP generated was detected using HTRF® technology and normalized to maximum amount produced by 100 nM amidated rat ANP and the minimum amount produced by assay buffer. Detailed steps are outlined below.
Stock solutions of test polypeptides (2 mM) dissolved in DMSO were first diluted 100-fold in assay buffer containing HBSS with Ca^2+ and Mg^2+, 5 mM HEPES, 0.5 mM IBMX, and 0.1% BSA or 0.1% casein (pH 7.4). The polypeptides were further serially diluted in 1:10 dilution steps in assay buffer containing 0.1% BSA or 0.1% casein to generate 8-point 2× working stock solutions ranging from 20 μM to […].
A 10 μL cell suspension containing 4000 cells was plated in Costar® half-area white opaque 96-well plates (Corning, cat no. 3693). Then 10 μL of assay buffer (basal activity), 200 nM of amidated rat ANP (maximum activity) or 2× working stock solutions of test polypeptides were transferred into the plate. Final concentration of DMSO in each well was 0.5%. The plate was shaken for 15 sec and then incubated for 40 min at room temperature.
The cGMP generated was measured using cGMP kit following the manufacturer's directions, as described below.

human NPRA = target: T2, human NPRA (Homo sapiens, UniProt P16066); assay: Human NPRA cGMP activity assay (HTRF) in HEK293 cells overexpressing NPRA; format: cell-based; conditions: cGMP Assay (EC50, pM) w/Casein hNPRA, assay buffer with 0.1% casein
T2 construct: Full-Length cDNA Cloning and Generation of Cell Lines Overexpressing Natriuretic Peptide Receptors (NPRs); expressed in transfected cells; host or cells: Jump-in T-Rex HEK293 cells, pJTI R4 CMV-TO MCS pA vector, tetracycline induction
T2 sequence (P16066 33-1061): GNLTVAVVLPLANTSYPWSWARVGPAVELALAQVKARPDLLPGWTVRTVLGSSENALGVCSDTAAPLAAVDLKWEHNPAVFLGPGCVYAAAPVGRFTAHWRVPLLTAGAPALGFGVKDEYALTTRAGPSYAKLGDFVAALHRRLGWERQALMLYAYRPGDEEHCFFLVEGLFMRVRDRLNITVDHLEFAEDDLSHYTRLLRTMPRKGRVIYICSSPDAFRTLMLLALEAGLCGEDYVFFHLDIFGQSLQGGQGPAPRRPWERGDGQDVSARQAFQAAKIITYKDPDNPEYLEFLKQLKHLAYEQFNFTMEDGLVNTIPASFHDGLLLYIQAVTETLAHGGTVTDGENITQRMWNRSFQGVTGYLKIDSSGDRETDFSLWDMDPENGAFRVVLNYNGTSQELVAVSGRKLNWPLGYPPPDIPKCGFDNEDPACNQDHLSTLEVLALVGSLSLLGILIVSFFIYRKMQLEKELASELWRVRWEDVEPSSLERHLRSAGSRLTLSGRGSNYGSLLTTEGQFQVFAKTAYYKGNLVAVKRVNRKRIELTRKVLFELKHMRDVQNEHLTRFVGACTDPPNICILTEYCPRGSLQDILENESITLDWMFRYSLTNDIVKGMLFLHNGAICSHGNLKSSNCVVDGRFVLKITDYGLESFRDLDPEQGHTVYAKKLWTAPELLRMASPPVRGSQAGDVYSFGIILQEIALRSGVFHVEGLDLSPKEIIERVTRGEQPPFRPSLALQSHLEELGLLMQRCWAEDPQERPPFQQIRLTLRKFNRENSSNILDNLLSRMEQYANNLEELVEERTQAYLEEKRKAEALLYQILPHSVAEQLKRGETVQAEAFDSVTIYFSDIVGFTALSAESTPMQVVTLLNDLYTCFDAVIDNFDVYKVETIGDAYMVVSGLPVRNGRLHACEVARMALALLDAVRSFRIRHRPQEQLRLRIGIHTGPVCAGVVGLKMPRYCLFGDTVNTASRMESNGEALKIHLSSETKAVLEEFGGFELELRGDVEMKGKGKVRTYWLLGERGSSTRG
Method in brief: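 cGMP measured by HTRF and scaled between buffer (minimum) and 100 nM amidated rat ANP (maximum). Polypeptides in 10-fold steps from 10 μM to 1 pM, 0.5% DMSO, 0.5 mM IBMX, 40 min at room temperature, on induced NPRA-overexpressing HEK293 cells.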

Row | SMILES | EC50 (rat NPRA; cGMP Assay (EC50, pM) w/BSA rNPRA, assay buffer with 0.1% BSA) | EC50 (rat NPRA; cGMP Assay (EC50, pM) w/Casein rNPRA, assay buffer with 0.1% casein) | EC50 (human NPRA)
1 | CC[C@H](C)[C@@H]1NC(=O)[C@H](CCCNC(=N)N)NC(=O)[C@H](CC(=O)O)NC(=O)[C@H]([C@@H](C)CC)NC(=O)[C@H](CCCNC(=N)N)NC(=O)[C@H](CCCCN)NC(=O)CNC(=O)[C@H](Cc2ccccc2)NC(=O)[C@@H](NC(=O)[C@H](CO)NC(=O)[C@H](CO)NC(=O)[C@H](CCCNC(=N)N)NC(=O)[C@@H]2CCCN2C(=O)[C@H](CCCCN)NC(=O)[C@H](CCC(=O)O)NC(=O)CNC(=O)[C@H](CCCCN)NC(=O)[C@H](CCC(=O)O)NC(=O)[C@H](CCCCN)NC(=O)[C@H](CCC(=O)O)NC(=O)[C@H](CCCCN)NC(=O)[C@H](CCC(=O)O)NC(=O)CC[C@H](NC(=O)CCCCCCCCCCCCCCCCCCC(=O)O)C(=O)O)CSCSC[C@@H](C(=O)N2CCC[C@H]2C(=O)N[C@@H](CO)C(=O)N[C@@H](Cc2ccccc2)C(=O)N[C@@H](CCCNC(=N)N)C(=O)N[C@@H](Cc2c[nH]cn2)C(=O)NCC(=O)N[C@@H](CO)C(=O)N2CCC[C@H]2C(=O)N[C@@H](CO)C(=O)N[C@@H](CO)C(=O)NCC(=O)N[C@@H](C)C(=O)N2CCC[C@H]2C(=O)N2CCC[C@H]2C(=O)N2CCC[C@H]2C(=O)N[C@@H](CO)C(N)=O)NC(=O)CNC(=O)[C@H](CC(C)C)NC(=O)CNC(=O)[C@H](CO)NC(=O)[C@H](Cc2ccc(O)cc2)NC(=O)[C@H](Cc2c[nH]cn2)NC(=O)CNC1=O [Example 5] | 276000 pM | 1130 pM | –
2 | CC[C@H](C)[C@@H]1NC(=O)[C@H](CCCNC(=N)N)NC(=O)[C@H](CC(=O)O)NC(=O)[C@H]([C@@H](C)CC)NC(=O)[C@H](CCCNC(=N)N)NC(=O)CNC(=O)CNC(=O)[C@H](Cc2ccccc2)NC(=O)[C@@H](NC(=O)[C@H](CO)NC(=O)[C@H](CO)NC(=O)[C@H](CCCNC(=N)N)NC(=O)CCNC(=O)[C@H](Cc2ccncc2)NC(=O)[C@H](CO)NC(=O)COCCOCCNC(=O)COCCOCCNC(=O)COCCOCCNC(=O)COCCOCCNC(=O)COCCOCCNC(=O)COCCOCCNC(=O)CNC(=O)[C@H](CCCCN)NC(=O)[C@H](CCC(=O)O)NC(=O)[C@H](CCCCN)NC(=O)[C@H](CCC(=O)O)NC(=O)[C@H](CCCCN)NC(=O)[C@H](CCC(=O)O)NC(=O)CC[C@H](NC(=O)CCCCCCCCCCCCCCCCCCC(=O)O)C(=O)O)CSCSC[C@@H](C(=O)N2CCC[C@H]2C(=O)N[C@@H](CO)C(=O)N[C@@H](Cc2ccccc2)C(=O)N[C@@H](CCCNC(=N)N)C(=O)N[C@@H](Cc2c[nH]cn2)C(=O)NCC(=O)N[C@@H](CO)C(=O)N2CCC[C@H]2C(=O)N[C@@H](CO)C(=O)N[C@@H](CO)C(=O)NCC(=O)N[C@@H](C)C(=O)N2CCC[C@H]2C(=O)N2CCC[C@H]2C(=O)N2CCC[C@H]2C(=O)N[C@@H](CO)C(N)=O)NC(=O)CNC(=O)[C@H](CC(C)C)NC(=O)CNC(=O)[C@H](CO)NC(=O)[C@H](Cc2ccc(O)cc2)NC(=O)[C@H](Cc2c[nH]cn2)NC(=O)CNC1=O [Example 111] | – | – | 1530 pM
